# CycPeptMPDB entries from one study

Data: CycPeptMPDB; original report Hewitt et al. 2015, doi:10.1021/ja508766b.

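Lipid, pH, incubation time, direction and concentration are not recorded in the data file. Other peptides of the study may be missing here. Peptides that the database sets to -10, its floor, are left out.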

Caco-2 values are permeabilities across monolayers of Caco-2 human intestinal cells.
P is given in units of 10^-6 cm/s (from log10 values with two decimals); larger means faster passage.

compound,Caco-2 (10^-6 cm/s)
CC(C)C[C@@H]1NC(=O)[C@@H](CC(C)C)N(C)C(=O)[C@@H](CC(C)C)N(C)C(=O)[C@H](CC(C)C)N(C)C(=O)[C@H]2CCCN2C(=O)[C@H](Cc2ccc(O)cc2)NC1=O,2.1
CC(C)C[C@@H]1C(=O)N(C)[C@@H](CC(C)C)C(=O)N[C@H](CC(C)C)C(=O)N[C@@H](Cc2ccc(O)cc2)C(=O)N2CCC[C@@H]2C(=O)N(C)[C@@H](CC(C)C)C(=O)N1C,23
CC(C)C[C@@H]1C(=O)N[C@@H](Cc2ccc(O)cc2)C(=O)N2CCC[C@@H]2C(=O)N(C)[C@@H](CC(C)C)C(=O)N(C)[C@H](CC(C)C)C(=O)N[C@H](CC(C)C)C(=O)N1C,0.44
CC(C)C[C@@H]1NC(=O)[C@@H](CC(C)C)N(C)C(=O)[C@H](CC(C)C)N(C)C(=O)[C@H]2CCCN2C(=O)[C@H](Cc2ccc(O)cc2)NC(=O)[C@H](CC(C)C)N(C)C1=O,2
CC(C)C[C@@H]1NC(=O)[C@H](CC(C)C)N(C)C(=O)[C@@H](CC(C)C)N(C)C(=O)[C@H](CC(C)C)N(C)C(=O)[C@H]2CCCN2C(=O)[C@H](Cc2ccc(O)cc2)NC1=O,0.38
CC(C)C[C@@H]1NC(=O)[C@@H](CC(C)C)N(C)C(=O)[C@H](CC(C)C)N(C)C(=O)[C@H]2CCCN2C(=O)[C@H](Cc2ccc(O)cc2)NC(=O)[C@@H](CC(C)C)N(C)C1=O,1.1
CC(C)C[C@@H]1C(=O)N[C@H](CC(C)C)C(=O)N[C@@H](Cc2ccc(O)cc2)C(=O)N2CCC[C@@H]2C(=O)N(C)[C@@H](CC(C)C)C(=O)N(C)[C@H](CC(C)C)C(=O)N1C,16
CC(C)C[C@@H]1NC(=O)[C@H](CC(C)C)N(C)C(=O)[C@H]2CCCN2C(=O)[C@H](Cc2ccc(O)cc2)NC(=O)[C@H](CC(C)C)N(C)C(=O)[C@@H](CC(C)C)N(C)C1=O,20
CC(C)C[C@@H]1C(=O)N[C@H](CC(C)C)C(=O)N(C)[C@@H](CC(C)C)C(=O)N[C@@H](Cc2ccc(O)cc2)C(=O)N2CCC[C@@H]2C(=O)N(C)[C@@H](CC(C)C)C(=O)N1C,0.55